Tests used:
[1] = Mouse liver microsome stability; format: in vitro ADME; conditions: 2 μM, 0.5 mg/mL microsome protein, NADPH
Description: (§1) Analytical LC-MS/MS conditions.
Mouse liver microsome stability. Male ICR/CD-1 mouse microsome fractions (lot 2110330) were purchased from Xenotech (Kansas City, KS). Microsome protein (0.5 mg/mL) was placed in a glass screw cap tube; a 2 mM DMSO stock of (D/L)-LA3IK and (D/L)-RP-7 were spiked into separate 50 mM Tris, pH 7.5 solution and this was added to the microsome solution on ice. The final concentration of compounds after addition of all reagents was 2 μM. An NADPH-regenerating system (1.7 mg/ml NADP, 7.8 mg/ml glucose-6-phosphate, 6 U/ml glucose-6-phosphate dehydrogenase in 2% w/v NaHCO3/10 mM MgCl2) was added for analysis of Phase I metabolism after heating both the regenerating solution and the sample tubes to 37° C. for 5 min in a 37° C. shaking water bath. The incubation was continued and at varying time points after addition of phase I cofactors, the reaction was stopped by the addition of 0.5 ml of acetonitrile containing IS and formic acid such that the final concentration of IS was 100 ng/ml and acid was 0.1%. Time 0 samples were stopped with the acetonitrile solution while still on ice prior to addition of the NADPH regenerating system and compound, which were subsequently added. […] The supernatant was analyzed by LC-MS/MS. […] The half-life (T ½) was calculated as T ½=0.693/slope.

[2] = Plasma stability; format: in vitro ADME, mouse; conditions: 2 μM, 37° C., up to 24 hours
Description: as §1
Plasma Stability. CD1 mouse plasma isolated using acidified citrate dextrose (ACD) was purchased from BioIVT and a DMSO stock of each compound was diluted into it at a final concentration of 2 μM. An aliquot was immediately removed for a zero time point and quenched with an equal volume of acetonitrile containing 0.2% formic acid and 200 ng/ml Tolbutamide IS. The remainder of the sample was incubated in a 37° C. water bath for up to 24 hours. Samples were removed at the indicated times and processed as described for the zero time point. After vortexing and centrifugation to pellet protein, the supernatant was analyzed by LC-MS/MS as described above. A control incubation was conducted in saline (0.9% NaCl).

Row | Substance | Mouse Microsome T 1/2 [1] | Murine Plasma T 1/2 [2]
1 | d(L)d(A)d(I)d(A)d(V)d(K) [D-LA3IK] | >2 h | >24 h
2 | d(R)d(P)d(P)d(C)d(V)d(I)d(L) [D-RP-7] | >2 h | 0.12 h

Reference: patent US20240409582A1, “DESIGN AND CHARACTERIZATION OF INHIBITORY PEPTIDES (IPEPS) DERIVED FROM OF MIEN 1 PROTEIN SEQUENCE” (priority 2022, published 2024)
